Laboratory results published in ChEMBL document CHEMBL1130234 (J Med Chem, 1997).

Target: T1, Arachidonate 5-lipoxygenase (Bos taurus, UniProt Q9BEG3)
T1 sequence (Q9BEG3 whole entry): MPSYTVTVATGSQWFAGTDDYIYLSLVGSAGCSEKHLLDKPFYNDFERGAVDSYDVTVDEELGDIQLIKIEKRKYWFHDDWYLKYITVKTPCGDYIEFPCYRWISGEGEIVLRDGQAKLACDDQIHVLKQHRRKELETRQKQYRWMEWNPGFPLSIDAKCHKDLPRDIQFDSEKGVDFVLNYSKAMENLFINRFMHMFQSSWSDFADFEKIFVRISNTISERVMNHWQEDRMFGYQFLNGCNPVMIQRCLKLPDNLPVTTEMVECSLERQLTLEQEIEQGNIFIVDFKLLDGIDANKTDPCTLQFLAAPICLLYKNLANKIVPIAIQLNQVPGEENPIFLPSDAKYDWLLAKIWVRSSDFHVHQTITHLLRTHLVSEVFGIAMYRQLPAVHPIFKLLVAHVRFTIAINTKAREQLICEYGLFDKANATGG
Assay: 5-LO inhibitory activity was determined by inhibition of LTB4 biosynthesis in bovine polymorphonuclear leukocytes (PMNL)
Assay type: functional, cell-based
In short: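 LTB4 biosynthesis measured in bovine polymorphonuclear leukocytes, with NDGA as the standard inhibitor; N = 3 or more, significance versus control at P < 0.01.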

O=C1c2cccc(O)c2Cc2cccc(O)c21
IC50: 10 µM
